This series deals with Blatta orientalis. Particulars: Table 37, 48 h, concentrations in mg/ml in label. On the procedure: Method: Contact test on non-porous tile measuring 400 cm^2 at a temperature of 28° C. Test duration: up to 72 hours after exposure of the insect to the insecticidal active substance.
Three tests were performed in parallel, A, B, and C, as follows: • A) Comparative. 1 ml of Composition 2 was applied to the tile. After waiting for the complete evaporation of the solvent, 10 cockroaches were placed on top of the treated tile, starting the test. • B) According to the invention. 1 ml of Composition 8b was distributed on the tile. After waiting for the complete evaporation of the solvent, 1 ml of Composition 2 was added to the same tile. Subsequently, after waiting for the solvent to evaporate, 10 cockroaches were placed on top of the treated tile, starting the test. • C) According to the invention. 1 ml of Composition 8b was distributed on a tile. After waiting for the complete evaporation of the solvent, 10 cockroaches were placed for 30 minutes on top of the treated tile. At the end of the 30 minutes, the cockroaches were transferred to an untreated area.
Method: Contact test on non-porous tile measuring 400 cm^2 at a temperature of 28° C. Test duration: up to 120 hours after exposure of the insect to the insecticidal active substance.
Three tests were performed in parallel, A, B, and C, as follows: • A) Comparative. 1 ml of Composition 4a was applied to the tile. […]

For the substance “Oleic alcohol [Oleic alcohol 85% (2.96)]”, the “Mortality %/time (h) (application)” value is given as 0/48 ^ %.

Values taken from patent publication US20260215418A1, “HYDROCARBON ALCOHOLS AND THEIR DERIVATIVES AS SYNERGISTS IN PESTICIDE ACTIVITY” (priority 2022, published 2026).
